The assay concerns Cysteinyl leukotriene receptor (Cavia porcellus). As to the kind of experiment: Inhibitory activity to block binding of [3H]leukotriene D4 to LTD4 receptor sites in homogenized guinea pig lung at 10 uM.

For the compound `CCCc1c(OCCCSc2ccc([C@@H](O)[C@H](C)CC(=O)O)cc2)ccc(C(C)=O)c1O` [L-649923], the inhibition – broadly, the percentage by which the read-out fell short of the control – came to 0%.
